Yeast mating assay B: variants of the scFv Ab-14

From the AlphaSeq antibody data of Li et al. 2023 (doi:10.1038/s41467-023-39022-2), copy in the FLAb collection.

Antigen: PDVDLGDISGINAS, a 14-residue peptide of the SARS-CoV-2 spike HR2 region.

Parent scFv Ab-14: VH joined to VL by the linker GGGGSGGGGSGGGGS. Changes lie in the light chain CDRs alone.
VH: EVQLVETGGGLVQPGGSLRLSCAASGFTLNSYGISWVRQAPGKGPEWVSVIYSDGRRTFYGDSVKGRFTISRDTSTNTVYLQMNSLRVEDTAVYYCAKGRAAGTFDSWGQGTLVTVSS
VL: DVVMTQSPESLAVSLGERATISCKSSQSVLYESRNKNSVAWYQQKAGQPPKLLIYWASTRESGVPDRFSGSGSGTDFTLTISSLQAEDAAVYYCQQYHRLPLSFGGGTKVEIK

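The parent was found by panning a naive human phage display library on the peptide. This is the validation round: designs drawn from the data on random variants, tested in the same kind of assay. Group labels follow the data file (Ctrl: baseline library sampled from a position-specific scoring matrix, with some repeated check sequences; Rand: our label for a block that the file lists under HC and that is probably the random mutants of the ten best first-round binders; GP: Gaussian process model; HC: hill climbing; Gen: genetic algorithm; Gibbs: Gibbs sampling; a sequence that several methods proposed may carry one label only). In AlphaSeq, yeast of one mating type display the scFv and yeast of the other type display the target. Binding brings cells together so that they mate, and sequencing counts the barcode pairs among the diploids. Read counts were normalised to the haploid input and turned into Kd by a linear fit to BCL2-family pairs of known affinity, for each replicate. Each pool was mated in six replicate cultures.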

Variants are written as CDR1, CDR2 and CDR3 of the light chain (limits as in the source). Parent: KSSQSVLYESRNKNSVA, WASTRES, QQYHRLPLS. This list holds designs with at most six substitutions. Kd is apparent (estimated from mating counts) and averaged on the log scale over replicates with a signal. Smaller is tighter. "nd" marks a missing value. The strain was present, yet no cells mated with the target were sequenced in any replicate, which points to weak or no binding. Empty control strains, which show no peptide, gave a signal in 4% of pairings with all light chain designs; the median was 430 nM and 95% of these signals were weaker than 38 nM. No background was subtracted.

- KLDQGNLYESRNKNSVA / GASTRES / QQYHRLPLS [GP_HC] -> 6.9 nM (6 of 6 replicates)
- KSSHSVDLESRNKNSVA / AASTRES / QQYHRLELS [Ctrl] -> 350 nM (1 of 6 replicates)
- KVDQSVLYESRNKNSVA / QGSTRES / QQYHRLPLH [GP_Gibbs] -> 13 nM (6 of 6 replicates)
- KLMQSQLYESRNKNSVA / NASQRLS / QQYHRLPLS [GP_Gen] -> 3.0 nM (6 of 6 replicates)
- KVSQSVEYERTFKNSVA / WASTRES / QQYHRLPLS [Ctrl] -> 30 nM (5 of 6 replicates)
- KCSQSVLYESRNKNSVA / WASLRES / QQYHRLPLS [Ctrl] -> 120 nM (5 of 6 replicates)
- KFSQSELYESRNKNSVA / DASQRES / QQYHRLPLS [GP_Gen] -> 1.1 nM (6 of 6 replicates)
- KLQQSVLYESRDKNSVA / HASTRED / QQYHRLPLS [GP_HC] -> 660 pM (6 of 6 replicates)
- KISQSVLYESRNKNSVA / DASTRES / QTYHRLPLL [Ctrl] -> 920 pM (6 of 6 replicates)
- KYSQSVMYESGNKNSVA / WASTRES / QQCHRLPLW [Ctrl] -> 33 nM (2 of 6 replicates)
- KFQQSMGYESRNKNSVA / EASTRSS / QQYHRLPLS [GP_Gibbs] -> 630 pM (6 of 6 replicates)
- KLSQSVGYEMRNKNSVA / EAQTREQ / QQYHRLPLS [GP_Gibbs] -> 460 pM (6 of 6 replicates)
- KSSQSVLYESRNANSVA / WASTRTS / QQYHRLPLS [Ctrl] -> 420 nM (1 of 6 replicates)
- KSSRSWLYESRNKNSVA / GASTRES / HQYHRLPLS [Rand] -> 190 nM (6 of 6 replicates)
- HSSPSVLYESRNVNSVA / NASTRES / QQYHRLPLS [GP_HC] -> 510 pM (6 of 6 replicates)
- KLSGSQLYESRMKNSVA / NASTRES / QQYHRLPLS [GP_Gen] -> 5.7 nM (6 of 6 replicates)
- KSSQSVPYEERNKNSVA / WASTRES / QQYHQLPLS [Ctrl] -> 130 nM (3 of 6 replicates)
- KSSQSVTYESANKNSVA / WANTRES / QQYHRLPLD [Ctrl] -> nd (0 of 6 replicates)
- KLSQSVPYESRNKNSVA / NASTRES / QDYHRLPLS [GP_Gen] -> 2.5 nM (6 of 6 replicates)
- KISQSPLYESRNKNSVA / WASTRES / QQHHRLPYS [Ctrl] -> 850 nM (2 of 6 replicates)
- KLQQSVLYESRNKNSVA / EASTRCS / QQYHRLPLS [GP_Gen] -> 3.9 nM (6 of 6 replicates)
- KFSQLYLYESRNKNSVA / NASTRES / QQYRRLPLS [GP_Gibbs] -> 450 pM (6 of 6 replicates)
- KFSQSVGYQERNKNSVA / DASTRES / QQYHRLPLS [GP_Gibbs] -> 790 pM (6 of 6 replicates)
- KLSQSQLYESRNPNSVA / NASTRES / QQYHRLPLS [GP_Gen] -> 690 pM (6 of 6 replicates)
- HQSPSVLYESRNKNSVA / EGSTREV / QQYHRLPLS [GP_HC] -> 370 pM (6 of 6 replicates)
- KSSQSVLYGSRNLNSVA / WHSTRCS / QQYHRLMLS [Ctrl] -> nd (0 of 6 replicates)
- HLEQSSLYESRNKNSVA / NASTRCS / QQYHRLPLS [GP_Gibbs] -> 410 pM (6 of 6 replicates)
- KLSQSWGYESRNKNSVA / NASTRMS / QQYHRLPLS [GP_Gen] -> 730 pM (6 of 6 replicates)
- KSSQGTLYESRNKNSVA / WASTRES / QQYHRLPLS [Ctrl] -> 18 nM (2 of 6 replicates)
- KVAQSELYESRNKNSVA / EASTRES / QQYHRLPLS [GP_Gen] -> 9.0 nM (6 of 6 replicates)
- KSPQGVLYESRNKNSVA / GASTRES / QQYHRLPLS [GP_HC] -> 1.4 nM (6 of 6 replicates)
- KSGQGVLYESRNWNSVA / GASTRES / QQYHRLPLS [GP_HC] -> 760 pM (6 of 6 replicates)
- KFSQSVLYESTTYNSVA / NASTRES / QQYHRLPLS [Rand] -> 2.7 nM (6 of 6 replicates)
- KSSISELGESRNKNSVA / EASTRES / QQYHRLPLS [GP_HC] -> 2.3 nM (6 of 6 replicates)
- KMEQSNGYESRNKNSVA / NASTRES / QQYWRLPLS [GP_Gibbs] -> 410 pM (6 of 6 replicates)
- KSDQGWLYESRNKNSVA / GASTRES / QQYHRLPLS [GP_HC] -> 500 pM (6 of 6 replicates)
- KLSQSVEYESRNKNSVA / NASQRES / QQYHRLPLS [GP_Gen] -> 770 pM (6 of 6 replicates)
- KLQQSVLYESRNKNSVA / NASTRES / QQYHRLPLS [GP_Gen] -> 440 pM (6 of 6 replicates)
- KGHQSALYESRNKNSVA / MASTRES / QQYHRLPLS [Ctrl] -> 46 nM (6 of 6 replicates)
- KDSQSVLYEERNYNSVA / EASTRES / QQYHRDELS [Ctrl] -> 640 nM (2 of 6 replicates)

A selection of 5 entries from above:

CDR-L1,CDR-L2,CDR-L3,group,apparent Kd,replicates with signal
KLMQSQLYESRNKNSVA,NASQRLS,QQYHRLPLS,GP_Gen,3.0 nM,6 of 6
KSSISELGESRNKNSVA,EASTRES,QQYHRLPLS,GP_HC,2.3 nM,6 of 6
KFSQLYLYESRNKNSVA,NASTRES,QQYRRLPLS,GP_Gibbs,450 pM,6 of 6
KLSQSQLYESRNPNSVA,NASTRES,QQYHRLPLS,GP_Gen,690 pM,6 of 6
HQSPSVLYESRNKNSVA,EGSTREV,QQYHRLPLS,GP_HC,370 pM,6 of 6

The parent sequence was in this pool as ten entries: three were never detected, three once, and four in most replicates, with averages from 2.2 nM to 240 nM. The range of this assay differs from that of the first round, and the authors advise against merging the two. The authors averaged sequences with at least three values out of six and counted those with two or fewer as poor binders.